Among the data in ChEMBL document CHEMBL1126779, “Antagonism of 1-(2,5-dimethoxy-4-methylphenyl)-2-aminopropane stimulus with a newly identified 5-HT2- versus 5-HT1C-selective antagonist” (J Med Chem, 1993) are Ki values, retold here.

SMILES strings stand for the structures.

The experiment deals with T1, 5-hydroxytryptamine receptor 2C (Rattus norvegicus, UniProt P08909).
T1 sequence (P08909 whole entry): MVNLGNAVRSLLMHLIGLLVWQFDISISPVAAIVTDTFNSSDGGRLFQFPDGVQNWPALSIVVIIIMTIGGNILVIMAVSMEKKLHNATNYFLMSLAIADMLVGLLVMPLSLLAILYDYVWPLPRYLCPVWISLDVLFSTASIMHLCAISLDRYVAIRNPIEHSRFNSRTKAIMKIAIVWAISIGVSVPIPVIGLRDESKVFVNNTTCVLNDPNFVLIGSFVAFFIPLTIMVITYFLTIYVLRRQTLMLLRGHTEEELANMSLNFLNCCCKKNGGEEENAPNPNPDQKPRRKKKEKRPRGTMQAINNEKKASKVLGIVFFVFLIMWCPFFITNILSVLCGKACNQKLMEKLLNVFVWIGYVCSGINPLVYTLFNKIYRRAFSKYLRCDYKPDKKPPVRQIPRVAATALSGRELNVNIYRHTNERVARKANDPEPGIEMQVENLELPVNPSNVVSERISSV
Briefly: Tested for binding affinity against 5-hydroxytryptamine 1C receptor from rat frontal cortical regions using [3H]mesulergine as radioligand. In outline: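 Rat frontal cortex homogenate (male Sprague-Dawley) was washed and preincubated 15 min at 37 °C in 50 mM Tris HCl, 0.5 mM EDTA, 10 mM MgCl2, pH 7.4, with 0.1% ascorbate and 10^-6 M pargyline. Nonspecific binding was set with 1.0 µM mianserin. Tubes ran 15 min at 37 °C in triplicate before filtration.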

As for `O=C(CCCN1CCC2(CC1)C(=O)NCN2c1ccccc1)c1ccc(F)cc1` [SPIPERONE], the affinity corresponds to a Ki of 1000 nM. This counts as single-digit micromolar.
